These results are taken from patent US20050209147A1, “Peptide inhibitors of RhoA signaling” (The Board of Trustees of the Leland Stanford Junior …, priority 2004, published 2005).

The chains behind the UniProt entries cited, without tags or fusion partners. Where a name states a change or a piece, a line headed by the entry shows the natural chain unless it says otherwise.
UniProt P61586: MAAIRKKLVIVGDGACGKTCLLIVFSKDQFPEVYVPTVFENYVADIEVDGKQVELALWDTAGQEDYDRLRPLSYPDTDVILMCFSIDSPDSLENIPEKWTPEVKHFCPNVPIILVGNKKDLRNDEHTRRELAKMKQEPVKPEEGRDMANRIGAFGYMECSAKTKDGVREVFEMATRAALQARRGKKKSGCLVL

In this assay the test system is LFA-1 high affinity state. The experiment in a line: Measurement of LFA-1 high affinity state (soluble 125I-ICAM-1 binding). The format is cell-based, mouse. Conditions: for LFA-1 high affinity state triggering by CCL21: 125I-ICAM-1 binding, 1 μM CCL21 2 min. The protocol:
Measurement of LFA-1 high affinity state. Induction of LFA-1 high affinity state by CCL21 was evaluated by measuring binding of soluble ^125I-ICAM-1. Briefly, ICAM-1 was iodinated with ^125NaI by the Chizzonite method. The binding assay was performed at 37° C. in a 500 μl Eppendorf tube. 40 μl of lymphocyte suspension (5×10^7/ml in PBS containing 1 mg/ml BSA, 2 mM MgCl2, 1 mM CaCl2, 1 mM D-glucose, pH 7.2) were directly layered on […] oil cushion of 2/1 dibutyl/dioctyl phthalates. Lymphocytes were stimulated with 10 μl of PBS containing chemokine (6 μM) and ^125I-ICAM-1 (5×10^5 CPM corresponding approximately to 2 μg of ^125I-ICAM-1). The binding reaction was stopped by rapid centrifugation in microfuge. Radioactivity bound to lymphocytes was counted with a gamma counter.

Turning to “P1-RhoA 75-92: Penetratin-1 fused through a glycine to human RhoA aa 75-92 (PDTDVILMCFSIDSPDSL, Domain II); aa 34 (Penetratin-1 fused via glycine linker; UniProt P61586 75-92, looked up, fragment)”, the “LFA-1 high affinity state triggering by CCL21” value was “did not prevent”.
For “P1-RhoA 23-40: Penetratin-1 fused through a glycine to human RhoA aa 23-40 (IVFSKDQFPEVYVPTVFE, Domain I); aa 34 (Penetratin-1 fused via glycine linker; UniProt P61586 23-40, looked up, fragment)”, the “LFA-1 high affinity state triggering by CCL21” value is “prevented”. Further, the “maximum blockade of LFA-1 high affinity state triggering” value (dose-dependent, CCL21) is recorded as “about 90%”.
